{"source": "patent US12281304B2", "about": "“Compositions and methods for treating and preventing muscular disorders and dystrophies, steroid side effects, and inflammation” (Children's National Medical Center, priority 2018, dated 2025)", "origin": "cited, not measured here", "test_system": "miRNA sequences", "conditions": "known mechanism listed in Table 6; compounds will be tested; cited from earlier work"}
{"smiles": "O=C(NCC(=O)N1CCCC1)Nc1ccc2cnccc2c1", "note": "[SGC707]", "values": [{"measurement": "Activity", "result": "Protein arginine methyltransferase 3 (PRMT3) inhibitor"}]}
{"smiles": "O=C(O)c1ccc(O)c2ncccc12", "note": "[IOX1]", "values": [{"measurement": "Activity", "result": "JMJD family inhibitor"}]}
